{
  "source": "patent US6387389B1",
  "about": "(priority 1996, dated 2002)",
  "biological_target": "dopamine transporter (DT) / serotonin transporter (ST)",
  "assay": "[125I]RTI 55 radioligand binding",
  "settings": "transporter not specified",
  "data": [
    {"smiles": "COC(=O)C1C2CCC(CC1c1ccc(I)cc1)N2", "note": "(single isomer, unassigned; (-)) [[^125I]RTI 55, (−)2β-carbomethoxy-3-β-(4-iodophenyl)nortropane]", "values": [
      {"measurement": "Kd", "result": "0.91 ± 0.04", "unit": "nM"}
    ]}
  ]
}
